Two molecules from ChEMBL document CHEMBL4041549, “Tetrahydroisoquinoline-7-carboxamide Derivatives as New Selective Discoidin Domain Receptor 1 (DDR1) Inhibitors” (ACS Med Chem Lett, 2017) can be followed below.

Sequences of proteins named here, by UniProt entry; tags and fusion partners are left off.
UniProt P10721, whole entry: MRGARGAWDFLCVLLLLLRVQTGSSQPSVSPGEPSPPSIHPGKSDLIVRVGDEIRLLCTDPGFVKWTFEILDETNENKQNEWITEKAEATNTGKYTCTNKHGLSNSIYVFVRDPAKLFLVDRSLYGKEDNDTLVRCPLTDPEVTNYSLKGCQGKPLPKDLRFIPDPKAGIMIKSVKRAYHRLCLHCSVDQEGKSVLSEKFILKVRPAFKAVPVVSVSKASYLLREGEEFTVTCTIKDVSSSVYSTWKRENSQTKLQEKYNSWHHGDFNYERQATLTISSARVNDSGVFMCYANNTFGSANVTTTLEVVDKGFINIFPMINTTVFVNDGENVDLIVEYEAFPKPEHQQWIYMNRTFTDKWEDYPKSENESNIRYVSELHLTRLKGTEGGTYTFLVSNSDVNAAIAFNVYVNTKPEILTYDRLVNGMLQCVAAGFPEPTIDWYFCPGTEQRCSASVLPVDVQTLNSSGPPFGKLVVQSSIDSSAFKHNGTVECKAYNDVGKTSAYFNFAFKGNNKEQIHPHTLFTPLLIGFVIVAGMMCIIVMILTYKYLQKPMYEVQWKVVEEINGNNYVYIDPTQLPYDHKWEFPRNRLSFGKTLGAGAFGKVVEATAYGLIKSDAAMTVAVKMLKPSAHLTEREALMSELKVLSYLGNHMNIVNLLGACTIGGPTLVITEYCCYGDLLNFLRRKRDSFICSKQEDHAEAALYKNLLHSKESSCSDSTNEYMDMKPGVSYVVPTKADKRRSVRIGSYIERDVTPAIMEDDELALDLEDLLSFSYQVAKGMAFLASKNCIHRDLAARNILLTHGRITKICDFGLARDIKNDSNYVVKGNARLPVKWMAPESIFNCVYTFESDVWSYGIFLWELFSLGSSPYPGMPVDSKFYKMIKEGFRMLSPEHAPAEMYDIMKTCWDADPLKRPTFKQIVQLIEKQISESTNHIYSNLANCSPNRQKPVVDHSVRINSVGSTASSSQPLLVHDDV

For the assay, the target named is Mast/stem cell growth factor receptor Kit (Homo sapiens, UniProt P10721). Put plainly: Inhibition of recombinant human His-tagged c-kit cytoplasmic domain (544 to 976 residues) expressed in baculovirus expression system using […] as substrate measured after 1 hr by FRET-based Z'-Lyte assay.

In general, IC50 refers to the concentration that gives 50% inhibition. Turning to `C[C@@H]1CN(c2cncnc2)Cc2cc(NC(=O)c3cc(CN4CCN(C)CC4)cc(C(F)(F)F)c3)ccc21`, the IC50 was > 10 µM.

Turning to `C[C@H]1CN(c2cncnc2)Cc2cc(NC(=O)c3cc(CN4CCN(C)CC4)cc(C(F)(F)F)c3)ccc21`, the concentration for half-maximal inhibition (IC50) is > 10 µM.
